Data as given in patent publication US11987575B2, “Tricyclic compounds as BCR-ABL inhibitors” (ASCENTAGE PHARMA (SUZHOU) CO., LTD., priority 2019, dated 2024).

Protein sequences, listed by entry. Tags and fused reporters are not part of them. Lines headed by an entry give the natural chain unless they say otherwise; changes in a name come on top.
UniProt P00519, whole entry: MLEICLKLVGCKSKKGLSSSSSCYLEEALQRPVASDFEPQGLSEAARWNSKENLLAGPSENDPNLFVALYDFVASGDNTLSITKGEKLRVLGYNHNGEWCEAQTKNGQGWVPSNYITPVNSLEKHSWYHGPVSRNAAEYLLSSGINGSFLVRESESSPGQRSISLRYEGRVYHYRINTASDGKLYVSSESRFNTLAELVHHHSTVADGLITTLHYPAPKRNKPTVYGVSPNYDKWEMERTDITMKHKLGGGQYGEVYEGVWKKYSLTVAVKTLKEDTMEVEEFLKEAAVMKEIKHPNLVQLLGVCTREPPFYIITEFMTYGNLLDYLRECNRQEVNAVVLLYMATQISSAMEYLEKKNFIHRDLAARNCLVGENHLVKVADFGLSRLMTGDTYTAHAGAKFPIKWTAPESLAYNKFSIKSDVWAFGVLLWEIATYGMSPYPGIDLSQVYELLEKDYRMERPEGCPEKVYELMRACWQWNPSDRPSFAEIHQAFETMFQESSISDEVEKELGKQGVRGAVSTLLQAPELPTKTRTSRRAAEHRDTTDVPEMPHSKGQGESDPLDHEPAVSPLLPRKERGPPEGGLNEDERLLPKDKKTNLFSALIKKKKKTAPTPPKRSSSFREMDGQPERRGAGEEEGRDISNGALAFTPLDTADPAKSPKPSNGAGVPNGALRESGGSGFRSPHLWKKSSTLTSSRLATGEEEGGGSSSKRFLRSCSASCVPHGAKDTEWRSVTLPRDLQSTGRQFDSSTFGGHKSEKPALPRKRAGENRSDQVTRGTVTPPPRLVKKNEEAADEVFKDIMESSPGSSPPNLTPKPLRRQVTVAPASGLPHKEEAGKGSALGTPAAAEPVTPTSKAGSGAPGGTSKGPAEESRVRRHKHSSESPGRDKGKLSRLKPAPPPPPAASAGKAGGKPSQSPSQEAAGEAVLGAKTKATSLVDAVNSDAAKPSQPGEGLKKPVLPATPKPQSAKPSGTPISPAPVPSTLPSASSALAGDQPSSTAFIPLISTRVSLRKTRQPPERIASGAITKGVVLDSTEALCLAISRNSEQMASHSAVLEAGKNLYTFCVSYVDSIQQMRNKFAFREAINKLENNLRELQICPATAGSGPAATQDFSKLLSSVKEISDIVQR
UniProt P00519, whole entry T315I: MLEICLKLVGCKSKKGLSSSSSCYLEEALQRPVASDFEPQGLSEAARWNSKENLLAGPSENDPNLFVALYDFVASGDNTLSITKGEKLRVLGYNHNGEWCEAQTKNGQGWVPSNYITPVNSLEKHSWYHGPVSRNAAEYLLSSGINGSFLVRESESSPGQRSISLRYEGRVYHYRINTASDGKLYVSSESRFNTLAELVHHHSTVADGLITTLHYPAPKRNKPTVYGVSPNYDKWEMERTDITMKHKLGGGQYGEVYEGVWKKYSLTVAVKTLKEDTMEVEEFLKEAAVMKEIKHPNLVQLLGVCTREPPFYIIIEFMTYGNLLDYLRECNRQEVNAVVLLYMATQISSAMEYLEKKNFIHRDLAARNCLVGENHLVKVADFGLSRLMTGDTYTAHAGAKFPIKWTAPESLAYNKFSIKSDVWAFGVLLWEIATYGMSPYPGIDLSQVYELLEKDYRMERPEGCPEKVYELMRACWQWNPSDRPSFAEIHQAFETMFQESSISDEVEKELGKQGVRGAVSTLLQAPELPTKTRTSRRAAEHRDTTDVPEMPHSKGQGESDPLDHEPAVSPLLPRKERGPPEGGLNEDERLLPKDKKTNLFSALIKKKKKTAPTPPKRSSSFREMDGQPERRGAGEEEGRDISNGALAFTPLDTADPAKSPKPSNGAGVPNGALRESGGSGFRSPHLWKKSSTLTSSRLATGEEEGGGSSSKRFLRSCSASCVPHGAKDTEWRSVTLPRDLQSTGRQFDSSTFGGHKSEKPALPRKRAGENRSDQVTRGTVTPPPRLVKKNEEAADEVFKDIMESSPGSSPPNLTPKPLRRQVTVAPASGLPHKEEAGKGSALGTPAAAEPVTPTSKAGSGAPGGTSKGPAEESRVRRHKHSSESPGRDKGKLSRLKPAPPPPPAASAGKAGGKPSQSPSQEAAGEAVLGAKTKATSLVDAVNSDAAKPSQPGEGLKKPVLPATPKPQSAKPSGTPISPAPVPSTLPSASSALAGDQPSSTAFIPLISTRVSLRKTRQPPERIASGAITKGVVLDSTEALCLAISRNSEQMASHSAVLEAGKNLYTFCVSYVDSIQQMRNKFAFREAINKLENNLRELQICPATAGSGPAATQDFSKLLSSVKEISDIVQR

Experiments:
[1] = molecular target: BaF3 (T315I mutant) (Homo sapiens, UniProt P00519, T315I, cells depend on it); assay: WST (CCK-8) anti-proliferative assay, BaF3 T315I mutant; settings: read-out: BaF3 (T315I mutant), 72 h treatment, CCK-8 readout OD 450 nm
[2] = molecular target: BaF3(WT) (Homo sapiens, UniProt P00519); assay: WST (CCK-8) anti-proliferative assay, BaF3 WT; settings: read-out: BaF3(WT); BaF3 WT cells, 72 h treatment, CCK-8 readout OD 450 nm

Compound | GI50 [1] | GI50 [2]
CC(C)(C)CN1c2c(-c3ccn[nH]3)cc(C(=O)Nc3ccc(OC(F)(F)Cl)cc3)cc2C2CCS(=O)(=O)CC21 (single isomer, unassigned) | 123 nM | 28 nM
CC(=O)NC1CCC2c3cc(C(=O)Nc4ccc(OC(F)(F)Cl)cc4)cc(-c4ccn[nH]4)c3N(C(C)C)C12 (single isomer, unassigned) [4A] | 35 nM | 3 nM
CC(=O)NC1CCC2c3cc(C(=O)Nc4ccc(OC(F)(F)Cl)cc4)cc(-c4ccn[nH]4)c3N(C(C)C)C12 (single isomer, unassigned) [4b] | 1270 nM | 535 nM
